Tests used:
[1] = test system: Nucleic Acid
[2] = test system: Nucleic Acid; remark: listed apart in the source

Structure (SMILES)	Log K [1]	Log K [2]
CS(=O)(=O)Nc1cccc(Nc2c3ccccc3nc3ccccc23)c1	5.73	–
CS(=O)(=O)Nc1ccc(Nc2c3ccccc3nc3ccccc23)cc1	6.15	6.27

Now from value to compound:

Log K [1]	Log K [2]	Structure (SMILES)
6.24	6.17	CNC(=O)Nc1ccc(Nc2c3ccccc3nc3ccccc23)cc1
6.3	6.25	CC(=O)Nc1ccc(Nc2c3ccccc3nc3ccccc23)cc1
6.36	–	COC(=O)Nc1ccc(Nc2c3ccccc3nc3ccccc23)cc1
